Source: ChEMBL document CHEMBL3525951, “Reevaluation of the microsomal metabolism of montelukast: major contribution by CYP2C8 at clinically relevant concentrations” (Drug Metab Dispos, 2011)

Protein sequences, listed by entry. Tags and fused reporters are not part of them.
UniProt P20815, whole entry: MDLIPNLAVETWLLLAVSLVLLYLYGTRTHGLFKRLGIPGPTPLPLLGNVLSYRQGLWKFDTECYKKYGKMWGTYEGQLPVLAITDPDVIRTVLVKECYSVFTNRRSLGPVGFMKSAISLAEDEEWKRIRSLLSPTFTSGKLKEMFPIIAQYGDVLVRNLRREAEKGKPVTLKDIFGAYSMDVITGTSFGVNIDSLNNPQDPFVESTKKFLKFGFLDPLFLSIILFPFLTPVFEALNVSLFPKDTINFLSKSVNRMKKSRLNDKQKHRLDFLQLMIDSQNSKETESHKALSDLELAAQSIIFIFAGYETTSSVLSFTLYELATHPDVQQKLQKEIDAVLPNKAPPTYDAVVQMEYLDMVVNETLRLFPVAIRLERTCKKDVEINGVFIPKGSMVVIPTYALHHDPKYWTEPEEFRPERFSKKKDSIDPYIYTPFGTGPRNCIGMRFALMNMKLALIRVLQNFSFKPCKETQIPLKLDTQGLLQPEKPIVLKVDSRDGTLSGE

How the values were obtained:
Type in all cases: ADME
Cytochrome P450 3A5 [1] = target: T1, Cytochrome P450 3A5 (Homo sapiens, UniProt P20815); assay: Activity of recombinant human CYP3A5 expressed in microsomes isolated from baculovirus infected insect cell assessed as enzyme-mediated (R)-2-(1-((1-(3-(2-(7-chloroquinolin-2-yl)vinyl)phenyl)-3-(4-hydroxy-2-(2-hydroxypropan-2-yl)phenyl)propylthio)methyl)cyclopropyl)acetic acid formation at 1 uM after 60 mins by LC-MS analysis; conditions: 1 h
Cytochrome P450 3A5 [2] = target: T1, Cytochrome P450 3A5; assay: Activity of recombinant human CYP3A5 expressed in microsomes isolated from baculovirus infected insect cell assessed as enzyme-mediated compound depletion at 0.02 uM after 30 mins by LC-MS analysis; conditions: 0.5 h
Cytochrome P450 3A5 [3] = target: T1, Cytochrome P450 3A5; assay: Activity of recombinant human CYP3A5 expressed in microsomes isolated from baculovirus infected insect cell assessed as enzyme-mediated 2-(1-(((1R)-1-(3-(2-(7-chloroquinolin-2-yl)vinyl)phenyl)-3-hydroxy-3-(2-(2-hydroxypropan-2-yl)phenyl)propylthio)methyl)cyclopropyl)acetic acid formation at 1 uM after 60 mins by LC-MS analysis; conditions: 1 h
Cytochrome P450 3A5 [4] = target: T1, Cytochrome P450 3A5; assay: Activity of recombinant human CYP3A5 expressed in microsomes isolated from baculovirus infected insect cell assessed as intrinsic clearance for enzyme-mediated 2-(1-(((1R)-1-(3-(2-(7-chloroquinolin-2-yl)vinyl)phenyl)-3-(2-(1,2-dihydroxypropan-2-yl)phenyl)propylthio)methyl)cyclopropyl)acetic acid formation by measuring Vmax/Km at 0.02 uM

`CC(C)(O)c1ccccc1CC[C@@H](SCC1(CC(=O)[O-])CC1)c1cccc(/C=C/c2ccc3ccc(Cl)cc3n2)c1.[Na+]` [MONTELUKAST SODIUM] was tested, and the Drug metabolism (Cytochrome P450 3A5 [1]) was “metabolite_detected”, the Drug metabolism (Cytochrome P450 3A5 [2]) was “metabolite_detected” and the Drug metabolism (Cytochrome P450 3A5 [3]) was “metabolite_detected”. The CL (Cytochrome P450 3A5 [4]) was 0.16 mL/min/nmol.
